Results: ChEMBL document CHEMBL6109145, “Indolizine Derivatives Inhibit TRPM2 and Protect against Ischemic Brain Injury with an Extended Treatment Window” (J Med Chem, 2025)

Sequences of proteins named here, by UniProt entry; tags and fusion partners are left off.
UniProt Q9HBA0, whole entry: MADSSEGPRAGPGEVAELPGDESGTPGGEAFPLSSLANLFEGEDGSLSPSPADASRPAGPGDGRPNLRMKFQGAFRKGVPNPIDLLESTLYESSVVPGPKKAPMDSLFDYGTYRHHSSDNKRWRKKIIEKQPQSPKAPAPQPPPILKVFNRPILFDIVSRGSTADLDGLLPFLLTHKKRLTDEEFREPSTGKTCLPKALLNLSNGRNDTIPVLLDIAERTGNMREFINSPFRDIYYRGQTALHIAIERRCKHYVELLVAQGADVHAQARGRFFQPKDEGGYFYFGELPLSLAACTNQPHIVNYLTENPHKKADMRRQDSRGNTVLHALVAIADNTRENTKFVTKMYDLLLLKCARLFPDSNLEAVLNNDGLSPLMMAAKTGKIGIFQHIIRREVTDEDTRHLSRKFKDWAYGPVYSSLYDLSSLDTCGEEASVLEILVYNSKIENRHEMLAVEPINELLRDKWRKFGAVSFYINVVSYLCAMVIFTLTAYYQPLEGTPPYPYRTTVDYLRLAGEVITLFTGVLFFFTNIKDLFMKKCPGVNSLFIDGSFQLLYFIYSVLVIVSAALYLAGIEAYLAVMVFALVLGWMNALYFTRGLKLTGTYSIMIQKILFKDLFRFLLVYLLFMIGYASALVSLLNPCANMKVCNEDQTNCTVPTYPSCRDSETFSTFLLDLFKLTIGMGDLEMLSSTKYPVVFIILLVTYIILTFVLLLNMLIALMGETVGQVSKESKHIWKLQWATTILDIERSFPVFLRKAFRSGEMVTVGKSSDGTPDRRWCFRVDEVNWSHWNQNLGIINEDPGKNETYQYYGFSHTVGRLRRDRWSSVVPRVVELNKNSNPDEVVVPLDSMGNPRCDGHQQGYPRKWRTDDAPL
UniProt Q7Z2W7, whole entry, looked up: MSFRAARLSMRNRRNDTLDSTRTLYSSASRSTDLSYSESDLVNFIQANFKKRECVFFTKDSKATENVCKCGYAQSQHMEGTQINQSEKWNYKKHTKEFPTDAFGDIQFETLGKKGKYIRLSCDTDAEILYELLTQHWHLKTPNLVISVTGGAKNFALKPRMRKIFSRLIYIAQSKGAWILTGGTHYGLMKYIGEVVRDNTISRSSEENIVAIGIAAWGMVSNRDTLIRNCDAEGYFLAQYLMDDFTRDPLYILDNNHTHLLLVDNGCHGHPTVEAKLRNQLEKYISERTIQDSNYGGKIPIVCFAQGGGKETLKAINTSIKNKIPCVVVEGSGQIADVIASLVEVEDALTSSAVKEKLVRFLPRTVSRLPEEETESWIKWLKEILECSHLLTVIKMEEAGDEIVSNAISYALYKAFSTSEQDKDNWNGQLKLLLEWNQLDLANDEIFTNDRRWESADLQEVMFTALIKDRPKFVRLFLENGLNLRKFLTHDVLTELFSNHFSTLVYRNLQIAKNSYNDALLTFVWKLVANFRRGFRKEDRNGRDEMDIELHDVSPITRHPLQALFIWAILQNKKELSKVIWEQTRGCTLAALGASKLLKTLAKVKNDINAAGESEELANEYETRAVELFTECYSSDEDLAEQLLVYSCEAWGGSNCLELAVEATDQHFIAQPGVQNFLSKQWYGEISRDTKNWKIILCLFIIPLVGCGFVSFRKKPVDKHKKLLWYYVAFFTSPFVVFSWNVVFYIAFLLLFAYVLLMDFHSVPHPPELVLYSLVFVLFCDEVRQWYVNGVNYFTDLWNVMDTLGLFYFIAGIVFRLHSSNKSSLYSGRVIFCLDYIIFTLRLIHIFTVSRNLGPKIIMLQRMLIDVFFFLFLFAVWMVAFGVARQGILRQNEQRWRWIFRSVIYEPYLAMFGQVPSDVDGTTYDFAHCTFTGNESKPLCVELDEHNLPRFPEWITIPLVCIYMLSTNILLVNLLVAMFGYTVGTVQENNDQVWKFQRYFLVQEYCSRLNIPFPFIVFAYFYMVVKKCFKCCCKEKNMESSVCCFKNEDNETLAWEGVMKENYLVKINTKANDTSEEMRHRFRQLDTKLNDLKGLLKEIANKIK

Experiments:
Type in all cases: cell-based
[1] = target: T1, Short transient receptor potential channel 6 (Homo sapiens) (UniProt Q9Y210); assay: Inhibition of TRPC6 channel (unknown origin) in doxycycline-inducible human HEK-293T cells assessed as inhibition of hyperforin activated current by measuring inhibition rate at +80 mV to -80 mV at 30 uM by whole-cell patch clamp electrophysiology relative to control
T1 sequence (whole entry): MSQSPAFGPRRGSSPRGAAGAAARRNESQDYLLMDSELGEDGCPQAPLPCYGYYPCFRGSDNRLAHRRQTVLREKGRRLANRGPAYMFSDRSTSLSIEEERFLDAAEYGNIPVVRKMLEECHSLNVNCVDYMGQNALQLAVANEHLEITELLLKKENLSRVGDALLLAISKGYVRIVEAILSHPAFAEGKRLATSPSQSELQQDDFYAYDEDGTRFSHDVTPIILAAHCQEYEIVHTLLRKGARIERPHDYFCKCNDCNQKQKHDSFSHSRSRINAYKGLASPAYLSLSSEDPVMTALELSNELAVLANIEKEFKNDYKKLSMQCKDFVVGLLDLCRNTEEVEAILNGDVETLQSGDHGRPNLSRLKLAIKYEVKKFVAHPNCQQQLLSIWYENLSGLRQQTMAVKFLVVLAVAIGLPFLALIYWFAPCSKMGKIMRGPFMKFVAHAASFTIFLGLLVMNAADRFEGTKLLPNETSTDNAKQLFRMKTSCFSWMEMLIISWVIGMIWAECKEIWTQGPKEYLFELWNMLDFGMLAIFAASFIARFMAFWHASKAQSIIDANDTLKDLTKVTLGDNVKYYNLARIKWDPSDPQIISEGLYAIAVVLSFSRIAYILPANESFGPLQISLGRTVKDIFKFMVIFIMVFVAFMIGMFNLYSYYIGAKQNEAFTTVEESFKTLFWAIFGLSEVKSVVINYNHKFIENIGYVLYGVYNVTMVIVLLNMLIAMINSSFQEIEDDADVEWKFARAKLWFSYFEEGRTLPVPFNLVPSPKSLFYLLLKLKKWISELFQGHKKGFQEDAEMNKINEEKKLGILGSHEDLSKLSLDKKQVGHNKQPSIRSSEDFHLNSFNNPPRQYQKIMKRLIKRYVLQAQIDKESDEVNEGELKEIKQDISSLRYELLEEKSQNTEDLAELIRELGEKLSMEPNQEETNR

[2] = target: Transient receptor potential cation channel subfamily V member 4 (Homo sapiens) (UniProt Q9HBA0); assay: Inhibition of TRPV4 channel (unknown origin) in doxycycline-inducible human HEK-293T cells assessed as inhibition of GSK1016790A activated current by measuring inhibition rate at +80 mV to -80 mV at 30 uM by whole-cell patch clamp electrophysiology relative to control
[3] = target: Transient receptor potential cation channel subfamily M member 8 (Homo sapiens) (UniProt Q7Z2W7); assay: Inhibition of TRPM8 (unknown origin) in doxycycline-inducible human HEK-293T cells assessed as inhibition of menthol activated current by measuring inhibition rate at +80 mV to -80 mV at 30 uM by whole-cell patch clamp electrophysiology relative to control
[4] = target: T2, Acid-sensing ion channel 1 (Homo sapiens) (UniProt P78348); assay: Inhibition of ASIC1a (unknown origin) in doxycycline-inducible human HEK-293T cells assessed as intracellular calcium at 30 uM by Fluo-4 AM staining based fluorescence assay
T2 sequence (whole entry): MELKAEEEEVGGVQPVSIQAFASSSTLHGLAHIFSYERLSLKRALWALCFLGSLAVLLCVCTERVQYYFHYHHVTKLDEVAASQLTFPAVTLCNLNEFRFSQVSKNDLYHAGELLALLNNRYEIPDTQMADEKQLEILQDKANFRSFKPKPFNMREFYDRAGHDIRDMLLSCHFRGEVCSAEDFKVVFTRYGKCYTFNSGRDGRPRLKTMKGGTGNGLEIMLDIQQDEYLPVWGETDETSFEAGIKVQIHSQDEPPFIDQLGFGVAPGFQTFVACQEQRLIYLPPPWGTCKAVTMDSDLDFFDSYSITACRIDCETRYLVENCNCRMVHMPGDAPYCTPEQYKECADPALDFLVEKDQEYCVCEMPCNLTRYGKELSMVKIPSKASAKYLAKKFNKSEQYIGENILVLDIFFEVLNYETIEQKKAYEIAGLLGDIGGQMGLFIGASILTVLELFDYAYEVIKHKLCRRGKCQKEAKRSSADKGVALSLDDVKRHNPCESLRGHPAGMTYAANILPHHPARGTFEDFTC

`COC(=O)c1cc(C(=O)c2ccccc2)n2cccc2c1` showed an inhibition [1] of 15.8%, an inhibition [2] of 14% and an inhibition [3] of 20.7%. It also gave an inhibition [4] of 15.6%.
